Measurements taken from ChEMBL document CHEMBL3232889, “Identification of novel SIRT2-selective inhibitors using a click chemistry approach” (Bioorg Med Chem Lett, 2014).
Activity calls are given as the source filed them. No rule for the calls is given here.

Target: T1, NAD-dependent protein deacetylase sirtuin-2 (Homo sapiens) (UniProt Q8IXJ6)
T1 sequence (whole entry): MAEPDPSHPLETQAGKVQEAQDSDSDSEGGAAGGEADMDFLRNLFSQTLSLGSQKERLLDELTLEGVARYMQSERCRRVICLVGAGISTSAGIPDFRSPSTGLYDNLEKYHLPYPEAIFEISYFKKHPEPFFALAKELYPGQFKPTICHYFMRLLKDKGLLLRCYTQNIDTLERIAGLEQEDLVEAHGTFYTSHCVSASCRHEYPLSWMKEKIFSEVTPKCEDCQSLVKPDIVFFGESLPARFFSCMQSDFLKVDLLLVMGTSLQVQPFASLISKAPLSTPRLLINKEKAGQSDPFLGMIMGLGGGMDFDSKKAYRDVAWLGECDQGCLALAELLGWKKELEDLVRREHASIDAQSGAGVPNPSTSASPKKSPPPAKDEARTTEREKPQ
Details: at 10 µM
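Also: recombinant enzyme with Fluor-de-Lys substrate, compound preincubated 60 min before substrate, fluorescence read after a further 60 min.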

## [N-]=[N+]=Nc1ccc([N+](=O)[O-])cc1
  inhibition: Active
